Assay results taken from paper PMC12497685, “Anticoronavirus Isoquinoline Alkaloids: Unraveling the Secrets of Their Structure–Activity Relationship” (Influenza and Other Respiratory Viruses, 2025).

System: Huh7 cells
Conditions: at 10 μM, compared with vehicle control, n = 1

(+)‐thalictricavine [Compound 27]
Cytotoxicity to the host Huh7 cells %: 35% and 35%–40%

Several values for one entry are separate records, joined by “and”; a condition that tells them apart may be missing. Equal values may be shown once.
